One may read the MTD as the largest dose that counted as tolerated. High values mean a wide tolerated range, low ones a narrow tolerated range.

This passage reports MTD results from patent US20100076005A1, “ISOCARBOSTYRIL ALKALOID DERIVATIVES HAVING ANTI-PROLIFERATIVE AND ANTI-MIGRATORY ACTIVITIES” (Unibioscreen SA, priority 2006, published 2010).

The data set in a line: in vivo. To be noted: mouse, maximum tolerated dose, single intravenous dose, healthy mice, survival and weights recorded up to 14 days. How it is done:
The maximum tolerated dose (herein after MTD) is defined as the maximum amount of a given drug which can be administered acutely (i.e. in one intraperitoneal, intravenous, subcutaneous or oral single dose) to healthy animals, i.e. animals not grafted with tumors. In this assay, compounds were administered intravenously. The survival times and weights of the animals were recorded up to 14 days post injection. Five different doses of each compound were used for the determination of the MTD index. Each experimental group comprised 3 mice for the determination of the MTD (expressed in mg/kg).

`O=C1N[C@@H]2C(=C[C@H](O)[C@@H](O)[C@H]2O)c2cc3c(c(O)c21)OCO3` [narciclasine, reference compound] showed an MTD at 14 days of 10 mg/kg.
